Literature values, collected in PMC11323006, “Designing Coiled Coils for Heterochiral Complexation to Enhance Binding and Enzymatic Stability” (Biomacromolecules, 2024).

Test system: protease
Details: L-form of the peptide alone; cited from earlier work

Ac-(FKFE)2-NH2
degradation upon incubation with protease: degrades within a day
